Results as given in PubChem BioAssay AID1458 (National Center for Advancing Translational Sciences (NCATS), 2008).
This is a selection; strong and weak results do not stand in their true shares. Some tests of the compounds listed are not included; inactive here does not mean inactive elsewhere. Records with an inconclusive call do not appear. Calls of active or inactive are those of the source. Calls come from the whole dose curve; as a rule, active = well fitted activation curve with a large enough effect; inconclusive = small, poorly fitted or top-dose-only effect; inactive = no such curve, though single readings can be large or run the other way.

test: qHTS Assay for Enhancers of SMN2 Splice Variant Expression; conditions: HEK293 SMN2-luciferase splicing reporter, luminescence, 30-36 h; at 46.1 µM (top of the series) unless noted; note: % of control where 0% means no effect; nearly all actives have a fitted effect of over 55% in size

Row | SMILES | activity change, positive = activation
1 | CC(C)N1C(=O)CC2(CCN(CCOC(=O)C(O)(c3ccccc3)c3ccccc3)CC2)C1=O | inactive: -0.993%
2 | CCN1CCCC(OC(=O)C2(O)c3ccccc3C=Cc3ccccc32)C1 (stereo not given) | inactive: -1.67%
3 | Cc1ccccc1C(=O)NCC1(N2CCCCC2)CCCCC1 | inactive: 5.69%
4 | CN(C)C1CCCC1OC(=O)C(O)(c1ccccc1)c1ccccc1 (stereo not given) | inactive: -11.3%
5 | COc1cccc(C(=O)NCC2(N3CCCCC3)CCCCC2)c1 | inactive: 8.9%
6 | CN(C)c1cccc(C(=O)NCC2(N(C)C)CCCCC2)c1 | inactive: 15.1%
7 | CN1CCC[C@H](OC(=O)[C@](O)(c2ccccc2)C2CCCC2)C1 | inactive: -0.84% [at 9.22 µM]
8 | O=C(OC1CN2CCC1CC2)C(CO)(c1ccccc1)c1ccccc1 (stereo not given) | inactive: -5.62%
9 | CN1CC[C@H](OC(=O)[C@](O)(c2ccccc2)C2CCCC2)C1 | inactive: -13.3% [at 9.22 µM]
10 | C=C(C)C#C[C@@](O)(C(=O)OC1CCN(C)CC1)c1ccccc1 | inactive: -16.6% [at 9.22 µM]
